Source: ChEMBL document CHEMBL1255514, “Discovery of 8-azabicyclo[3.2.1]octan-3-yloxy-benzamides as selective antagonists of the kappa opioid receptor. Part 1” (Bioorg Med Chem Lett, 2010)

Amino acid sequences for entries named in this document (tags omitted). A change or cut given only in a name is not applied to a line headed by its entry.
UniProt P41145: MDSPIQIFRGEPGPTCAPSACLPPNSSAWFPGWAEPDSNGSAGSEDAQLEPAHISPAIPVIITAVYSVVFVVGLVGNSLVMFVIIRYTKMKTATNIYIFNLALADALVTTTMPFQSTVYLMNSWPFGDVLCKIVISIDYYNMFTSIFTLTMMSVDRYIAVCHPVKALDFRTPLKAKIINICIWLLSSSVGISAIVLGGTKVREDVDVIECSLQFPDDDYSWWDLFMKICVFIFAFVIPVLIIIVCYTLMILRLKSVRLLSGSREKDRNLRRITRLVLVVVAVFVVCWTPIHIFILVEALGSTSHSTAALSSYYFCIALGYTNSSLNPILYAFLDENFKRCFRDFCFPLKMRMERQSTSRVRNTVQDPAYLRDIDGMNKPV
UniProt P35372, whole entry: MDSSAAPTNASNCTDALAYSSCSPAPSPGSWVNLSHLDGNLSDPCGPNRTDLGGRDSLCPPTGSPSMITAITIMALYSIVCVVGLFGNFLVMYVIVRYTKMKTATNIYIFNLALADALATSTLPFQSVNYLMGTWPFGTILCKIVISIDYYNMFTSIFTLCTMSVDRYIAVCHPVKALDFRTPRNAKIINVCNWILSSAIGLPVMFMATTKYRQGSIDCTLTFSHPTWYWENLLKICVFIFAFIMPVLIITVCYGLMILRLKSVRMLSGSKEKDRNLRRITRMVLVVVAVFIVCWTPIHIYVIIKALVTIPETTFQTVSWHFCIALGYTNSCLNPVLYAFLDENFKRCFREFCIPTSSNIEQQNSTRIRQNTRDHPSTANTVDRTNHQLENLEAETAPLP
UniProt P41143, whole entry: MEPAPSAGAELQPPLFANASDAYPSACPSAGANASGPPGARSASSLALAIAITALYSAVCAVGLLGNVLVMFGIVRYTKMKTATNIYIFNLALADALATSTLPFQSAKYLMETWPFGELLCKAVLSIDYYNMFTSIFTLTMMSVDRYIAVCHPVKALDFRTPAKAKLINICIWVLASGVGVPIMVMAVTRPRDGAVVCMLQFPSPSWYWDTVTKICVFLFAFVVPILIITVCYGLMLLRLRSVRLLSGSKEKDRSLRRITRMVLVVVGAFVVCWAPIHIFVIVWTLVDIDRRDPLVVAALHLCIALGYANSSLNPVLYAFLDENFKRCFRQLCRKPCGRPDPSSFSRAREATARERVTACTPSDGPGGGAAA

What was measured:
Type in all cases: functional
[1] = molecular target: Kappa-type opioid receptor (Homo sapiens, UniProt P41145); assay: Antagonist activity at human kappa opioid receptor assessed as inhibition of dynorphin A-induced [35S]GTPgammaS binding
Mu-type opioid receptor = Mu-type opioid receptor (Homo sapiens, UniProt P35372); assay: Antagonist activity at human mu opioid receptor assessed as inhibition of DAMGO-stimulated [35S]GTPgammaS binding
[2] = molecular target: Delta-type opioid receptor (Homo sapiens, UniProt P41143); assay: Antagonist activity at human delta opioid receptor assessed as inhibition of SNC80-stimulated [35S]GTPgammaS binding

Compound | IC50 [1] | IC50 (Mu-type opioid receptor) | IC50 [2]
C[C@H](c1ccc(Cl)nc1)N1[C@@H]2CC[C@H]1C[C@H](Oc1cccc(C(N)=O)c1)C2 | 90 nM | 1940 nM | 
Cc1cccc(CN2[C@@H]3CC[C@H]2C[C@H](Oc2cccc(C(N)=O)c2)C3)c1 | 148 nM | 2650 nM | 11100 nM
CC(c1ccncc1)N1[C@@H]2CC[C@H]1C[C@H](Oc1cccc(C(N)=O)c1)C2 (stereo partly specified) | 1410 nM |  | 
